Measured values taken from ChEMBL document CHEMBL1141066, “Acetylenic TACE inhibitors. Part 2: SAR of six-membered cyclic sulfonamide hydroxamates” (Bioorg Med Chem Lett, 2005).

Protein sequences, listed by entry. Tags and fused reporters are not part of them. Lines headed by an entry give the natural chain unless they say otherwise; changes in a name come on top.
UniProt P14780: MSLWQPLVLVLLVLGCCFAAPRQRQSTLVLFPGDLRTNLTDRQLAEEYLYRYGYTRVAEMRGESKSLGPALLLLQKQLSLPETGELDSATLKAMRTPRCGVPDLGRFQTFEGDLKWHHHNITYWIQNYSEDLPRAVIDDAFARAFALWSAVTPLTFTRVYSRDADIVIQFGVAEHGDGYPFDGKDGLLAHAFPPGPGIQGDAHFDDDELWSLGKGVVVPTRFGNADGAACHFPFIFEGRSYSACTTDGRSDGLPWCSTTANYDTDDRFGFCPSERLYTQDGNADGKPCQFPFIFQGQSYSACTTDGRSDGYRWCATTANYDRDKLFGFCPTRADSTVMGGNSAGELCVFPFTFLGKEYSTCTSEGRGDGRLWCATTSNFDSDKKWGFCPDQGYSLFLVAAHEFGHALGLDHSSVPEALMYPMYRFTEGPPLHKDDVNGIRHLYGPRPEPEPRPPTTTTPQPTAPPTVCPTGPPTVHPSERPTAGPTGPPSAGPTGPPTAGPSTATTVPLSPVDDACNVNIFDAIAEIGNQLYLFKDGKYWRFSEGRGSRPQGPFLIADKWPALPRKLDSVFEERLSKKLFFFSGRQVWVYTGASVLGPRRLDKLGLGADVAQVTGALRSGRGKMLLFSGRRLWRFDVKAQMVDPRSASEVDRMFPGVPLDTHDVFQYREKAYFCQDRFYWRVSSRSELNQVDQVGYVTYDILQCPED
UniProt P78536: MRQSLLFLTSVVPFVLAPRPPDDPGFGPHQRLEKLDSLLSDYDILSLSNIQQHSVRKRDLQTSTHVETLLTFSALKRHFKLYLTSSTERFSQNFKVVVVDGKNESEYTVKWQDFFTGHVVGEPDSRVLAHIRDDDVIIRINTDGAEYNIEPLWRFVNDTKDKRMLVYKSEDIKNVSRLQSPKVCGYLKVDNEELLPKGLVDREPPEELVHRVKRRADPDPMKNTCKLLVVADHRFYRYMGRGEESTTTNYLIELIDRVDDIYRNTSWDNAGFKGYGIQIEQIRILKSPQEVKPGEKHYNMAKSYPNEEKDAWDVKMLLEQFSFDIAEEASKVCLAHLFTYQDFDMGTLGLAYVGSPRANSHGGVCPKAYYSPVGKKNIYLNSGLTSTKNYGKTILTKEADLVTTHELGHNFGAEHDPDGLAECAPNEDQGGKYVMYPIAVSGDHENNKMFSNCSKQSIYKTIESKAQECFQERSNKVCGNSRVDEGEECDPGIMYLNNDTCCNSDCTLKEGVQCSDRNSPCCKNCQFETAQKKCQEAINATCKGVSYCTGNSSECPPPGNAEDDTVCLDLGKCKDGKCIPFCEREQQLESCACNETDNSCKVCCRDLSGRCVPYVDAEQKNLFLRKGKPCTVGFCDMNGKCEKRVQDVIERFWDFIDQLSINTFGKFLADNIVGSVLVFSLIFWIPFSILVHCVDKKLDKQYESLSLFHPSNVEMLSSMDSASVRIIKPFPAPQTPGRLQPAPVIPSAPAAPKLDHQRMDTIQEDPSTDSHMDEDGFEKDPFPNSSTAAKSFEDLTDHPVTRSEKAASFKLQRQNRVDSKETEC

Assays:
[1] = molecular target: Matrix metalloproteinase-9 (Homo sapiens, UniProt P14780); assay: Inhibitory activity against matrix metallopeptidase 9
[2] = molecular target: Collagenase 3 (Homo sapiens, UniProt P45452); assay: Inhibitory activity against matrix metallopeptidase 13
[3] = molecular target: Disintegrin and metalloproteinase domain-containing protein 17 (Homo sapiens, UniProt P78536); assay: Inhibitory activity against TACE[ADAM metallopeptidase domain 17] in isolated enzyme assay

IC50 [1]: 12 nM
IC50 [2]: 3 nM
IC50 [3]: 8 nM
Compound: CC#CCOc1ccc(S(=O)(=O)N2CCSC(C)(C)C2C(=O)NO)cc1 (stereo not drawn)
